# scFv variants of Ab-14 (light chain) against a SARS-CoV-2 spike peptide

Source: Li et al. 2023 (doi:10.1038/s41467-023-39022-2), MIT Lincoln Laboratory and A-Alpha Bio; data file from the FLAb repository.

Target: peptide PDVDLGDISGINAS, taken from heptad repeat 2 (HR2) of SARS-CoV-2 spike.

Each scFv is VH, the linker GGGGSGGGGSGGGGS, VL, as in the parent Ab-14, and differs from it in the CDRs of the light chain only.
VH: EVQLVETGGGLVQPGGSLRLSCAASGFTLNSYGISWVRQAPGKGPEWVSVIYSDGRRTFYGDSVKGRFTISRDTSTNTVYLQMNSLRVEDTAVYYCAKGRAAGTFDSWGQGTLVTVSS
VL: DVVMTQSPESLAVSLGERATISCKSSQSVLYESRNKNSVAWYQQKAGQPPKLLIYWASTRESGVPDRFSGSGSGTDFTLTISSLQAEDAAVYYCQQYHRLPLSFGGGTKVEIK

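The starting antibody came from a phage panning campaign against this peptide. This is the validation round: designs drawn from the data on random variants, tested in the same kind of assay. Their group label is 14L_GP_Gibbs (GP: Gaussian process model; Gibbs: Gibbs sampling; a sequence that several methods proposed may carry one label only). The scFvs were displayed on barcoded MATa yeast, the peptide on MATalpha yeast. Binding brings cells together so that they mate, and sequencing counts the barcode pairs among the diploids. Read counts were normalised to the haploid input and turned into Kd by a linear fit to BCL2-family pairs of known affinity, for each replicate. Each pool was mated in six replicate cultures.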

Each variant is given by its three light chain CDRs, as the data file delimits them; those of the parent are KSSQSVLYESRNKNSVA, WASTRES, QQYHRLPLS.
Scale: log10 of Kd in nM, estimated from mating counts; low values are strong binders.
"n.d." means that the variant was in the library but no mating with the target was seen in that replicate; the authors take this as a sign of poor binding, and no number exists.
Empty control strains, which show no peptide, gave a signal in 4% of pairings with all light chain designs; the median was 2.64 and 95% of these signals were weaker than 1.59. No background was subtracted. The control count says in how many pairings with the empty strains this scFv gave a signal, with their mean in brackets.

| CDR-L1 | CDR-L2 | CDR-L3 | log10 Kd (nM) by replicate | empty controls |
|---|---|---|---|---|
| KFSQLYLYESRNKNSVA | NASTRES | QQYRRLPLS | -0.21 / -0.32 / -0.44 / -0.42 / -0.42 / -0.24 | 2 of 18 (2.77) |
| KYEYSELELSRNKNSVA | NASTREE | QDYHRLPLS | 0.40 / 0.60 / 0.37 / 0.33 / 0.27 / 0.61 | 0 of 18 |
| KLSQSEPYESRCANSVA | NASTRCS | QQYHRLPLS | 0.53 / 0.44 / 0.72 / 0.70 / 0.59 / 0.42 | 2 of 18 (3.20) |
| KLQFLVLYESRNKNSVA | GASTRES | QAYHRLPLS | 1.97 / 1.85 / 1.64 / 2.17 / 1.48 / 1.53 | 0 of 18 |
| KVSQSVLQGDRNKSSVA | QASTREM | QQYHRLPLS | 1.10 / 1.22 / 1.27 / 1.19 / 1.36 / 1.34 | 0 of 18 |
| KVSILDDGGDRNKNSVA | HASLRES | QQYHRLPLS | n.d. / 0.68 / 0.12 / 0.03 / 0.68 / 0.48 | 0 of 18 |
| KFEQLVLPEQRNKNSVA | NASLRED | QQYHRLPLS | 0.70 / 0.47 / 0.46 / 0.70 / 0.49 / 1.25 | 0 of 18 |
| KLSQSVEYQSRDKNAVA | SAQTRES | QQYHRLPLS | 0.28 / 0.06 / 0.19 / -0.02 / -0.06 / 0.08 | 1 of 18 (1.90) |
| KLQFLELQESRNKNSVA | SASTRES | QQYHRLPLS | 0.02 / 0.07 / -0.19 / -0.17 / -0.08 / 0.10 | 2 of 18 (2.70) |
| KLSMLWLMESRNHNSVA | SANTRES | QQYHRLPLS | 1.33 / 0.58 / 0.81 / 0.65 / 0.40 / 0.54 | 0 of 18 |
| KFSQLYLYESRNKNSVA | NASCRES | QQYWRLPLS | 0.72 / 1.37 / 0.67 / 0.52 / 1.39 / 1.02 | 1 of 18 (3.43) |
| KLQQWWLYEGRNKNSVA | QASQRSD | QQYHRLPLS | 0.17 / -0.01 / 0.00 / 0.04 / 0.19 / 0.09 | 1 of 18 (2.10) |
| KMSQSNDYEDRNSNAVA | EASTREM | QQYHRLPLS | 1.31 / 1.35 / 1.80 / 3.15 / 1.35 / 1.39 | 1 of 18 (2.05) |
| KISQEVLMESRNMNSVA | NASTREE | QQYHRLPLS | -0.20 / -0.24 / -0.28 / -0.30 / -0.11 / -0.38 | 1 of 18 (2.18) |
| KLQSLWLYESRNKNNVA | NASTRYS | QQYHRLPLS | 0.04 / -0.15 / -0.17 / -0.34 / -0.19 / 0.02 | 0 of 18 |
| KVKQSWLYESRMQNNVA | NASLRES | QQYHRLPLS | 0.96 / 0.95 / 1.34 / 0.91 / 0.75 / 1.05 | 2 of 18 (2.14) |
| KQSQSVPMGERNKNSVA | MASYRLS | QQYHRLPLS | 1.29 / 2.34 / 2.42 / 1.49 / 1.80 / 2.42 | 0 of 18 |
| KLMQSSLYESRNKNSVA | QASTREW | QQYHRLPLS | 0.14 / 0.25 / -0.15 / -0.05 / 0.30 / 0.25 | 1 of 18 (2.16) |
| KLMCSMEYESRNKNSVA | NASTREM | QQYHRLPLS | 0.60 / 0.59 / 0.67 / 0.87 / 0.57 / 0.56 | 0 of 18 |
| KLQFSEEYESRNKNSVA | SAHQREV | QQYHRLPLS | -0.48 / -0.64 / -0.49 / -0.77 / -0.42 / -0.29 | 2 of 18 (0.98) |
| KLSPSFLYESRNKNSVA | DADTRLE | QQYHRLPLS | 0.09 / 0.02 / -0.12 / 0.19 / -0.05 / 0.10 | 1 of 18 (2.10) |
| KLSQSVLYEGRNDNSVA | NASTRMS | QQYHRLPLS | -0.33 / -0.38 / -0.40 / -0.56 / -0.34 / -0.17 | 2 of 18 (2.85) |
| KSSQSDLYESRNGNSVA | NGSTRMD | QQYHRLPLS | 0.44 / 0.22 / 0.20 / 0.14 / 0.19 / 0.37 | 0 of 18 |
| KISESWLYEPRNSNSVA | NASTRQM | QQYHRLPLS | 0.14 / 0.16 / -0.30 / -0.21 / -0.12 / 0.11 | 1 of 18 (2.71) |
| KMMQSQLYEDRNSNAVA | NASQRES | QQYHRLPLS | 0.11 / -0.17 / -0.20 / -0.25 / -0.20 / 0.08 | 1 of 18 (2.88) |
| KCPQSVPQESRNKNSVA | NASQREQ | QQYHRLPLS | 1.08 / 0.83 / 0.53 / 0.43 / 0.85 / 0.89 | 2 of 18 (1.27) |
| KYSQEVLEESRNKNSVA | NASTREE | QQYHRLPLS | 0.14 / -0.19 / -0.09 / -0.24 / -0.05 / 0.10 | 1 of 18 (4.43) |
| KSHISELYEDRNQNSVA | SASQRLE | QQYHRLPLS | -0.27 / -0.35 / 0.02 / -0.28 / -0.45 / -0.19 | 0 of 18 |
| KLQEQSLYWSRNKNSVA | EASTRES | QQYHRLPLS | 0.11 / 0.29 / -0.22 / 0.08 / 0.34 / 0.12 | 2 of 18 (2.84) |
| KLSQSMLYESRVKNNVA | DASQRES | QMYHRLPLS | n.d. / n.d. / 1.39 / 0.57 / 2.39 / 2.90 | 0 of 18 |
| KLVGSWQYEDRNKNSVA | HASQRCS | QQYHRLPLS | 0.37 / 0.28 / 0.06 / 0.24 / 0.29 / 0.27 | 0 of 18 |
| HLSQSQDYESRNKNSVA | NASQRYQ | QQYHRLPLS | 0.02 / -0.08 / -0.09 / -0.21 / -0.21 / 0.03 | 1 of 18 (3.37) |
| KLMNSMLYESRNVNNVA | NASQREL | QQYHRLPLS | 0.04 / 0.01 / -0.12 / -0.14 / -0.12 / 0.03 | 2 of 18 (3.07) |
| WLSMSVMLWSRNVNSVA | SASTREE | QQYHRLPLS | 1.19 / -0.27 / -0.19 / -0.07 / 0.67 / -0.27 | 0 of 18 |
| KYSMSELGEQRNANSVA | NASTREE | QQYHRLPLS | 0.51 / 0.44 / 0.24 / 0.42 / 0.35 / 0.55 | 1 of 18 (2.82) |
| KLSWSVPYESRNLNNVA | HGSTRCS | QQYHRLPLS | 0.82 / 0.14 / 0.70 / 0.66 / 0.31 / 0.37 | 1 of 18 (1.85) |
| KLSQSHLYEERNKNNVA | SASTREW | QQYHRLPLS | -0.11 / -0.52 / -0.54 / -0.59 / -0.47 / -0.23 | 3 of 18 (2.15) |
| KFSQAWMYEQRNKNSVA | NASQRES | QQYHRLPLS | -0.03 / -0.14 / -0.24 / -0.32 / -0.27 / -0.17 | 0 of 18 |
| KLSASQLYESRNSNAVA | NASTRMM | QQYHRLPLS | -0.17 / -0.22 / -0.28 / -0.04 / -0.15 / 0.18 | 0 of 18 |
| KQSQSQLYESGNGNSVA | NASVRED | QQYHRLPLS | 0.43 / 0.19 / -0.06 / 0.28 / 0.22 / 0.73 | 0 of 18 |
| KVSPSVLGEMRNKNSVA | NASTRRS | QQYHRLPLS | n.d. / n.d. / n.d. / n.d. / n.d. / n.d. | 0 of 18 |
| KLHQSWLYESRNHNSVA | NASQRCS | QQYHRLPLS | 0.04 / 0.29 / 0.17 / 0.07 / 0.17 / 0.11 | 0 of 18 |
| KSEQSVYYGERNKNSVA | QASTRES | QQYHRLPLS | 0.09 / 0.11 / -0.05 / -0.25 / -0.03 / 0.17 | 1 of 18 (2.64) |
| KLWESVLGESRNWNAVA | SASTREE | QQYHRLPLS | 0.36 / 0.59 / 0.07 / 0.18 / 0.40 / 0.12 | 1 of 18 (2.92) |
| KVSQSHPYEERNANNVA | NASDRES | QQYHRLPLS | -0.23 / -0.27 / -0.54 / -0.57 / -0.34 / 0.00 | 0 of 18 |
| KLSYSNLYEDRNKNSVA | NASTRCQ | QQYHRLPLS | -0.19 / -0.20 / -0.11 / -0.26 / -0.40 / -0.14 | 0 of 18 |
| KCQGSQLYESRNKNAVA | NASTRLD | QQYHRLPLS | 0.48 / 0.18 / 0.22 / 0.19 / 0.33 / 0.54 | 0 of 18 |

The 6 strongest on average among those seen in every replicate, once more:

CDR-L1,CDR-L2,CDR-L3,log10 Kd (nM) by replicate,empty controls
KLQFSEEYESRNKNSVA,SAHQREV,QQYHRLPLS,-0.48 / -0.64 / -0.49 / -0.77 / -0.42 / -0.29,2 of 18 (0.98)
KLSQSHLYEERNKNNVA,SASTREW,QQYHRLPLS,-0.11 / -0.52 / -0.54 / -0.59 / -0.47 / -0.23,3 of 18 (2.15)
KLSQSVLYEGRNDNSVA,NASTRMS,QQYHRLPLS,-0.33 / -0.38 / -0.40 / -0.56 / -0.34 / -0.17,2 of 18 (2.85)
KFSQLYLYESRNKNSVA,NASTRES,QQYRRLPLS,-0.21 / -0.32 / -0.44 / -0.42 / -0.42 / -0.24,2 of 18 (2.77)
KVSQSHPYEERNANNVA,NASDRES,QQYHRLPLS,-0.23 / -0.27 / -0.54 / -0.57 / -0.34 / 0.00,0 of 18
KSHISELYEDRNQNSVA,SASQRLE,QQYHRLPLS,-0.27 / -0.35 / 0.02 / -0.28 / -0.45 / -0.19,0 of 18

Of ten entries with the parent sequence, four were seen in most replicates (averages 0.34 to 2.37), three in one and three in none, so single entries are noisy.
The authors' rule: three or more of the six replicates give a measured affinity, fewer mean a poor binder.
The range of this assay differs from that of the first round, and the authors advise against merging the two.